The values below come from patent publication US5019574A, “3,4-diaminoquinoline and 3,4-diamino-5,6,7,8-tetrahydroquinoline compounds useful for improving psychoneural function” (Chugai Seiyaku Kabushiki Kaisha, priority 1988, dated 1991).

In this test the test system is male rats (F344). Kind of test: Effect on performance in a radial-arm maze task (AF64AP-treated rats). In kind it is in vivo. The note with it: 0.05 nmol injected into both lateral cerebral ventricles.

In the case of `CC[N+]1(CCO)CC1`, the “memory impairment compared to the control group” value is given as “significant memory impairment”.
